Nrf2 activator: activates Nrf2 signaling | AREc32 ARE-luciferase reporter (MCF7-derived line), luminescence, 24 h | Potency, µM (doses to about 46.1 µM), most hits filed as activators | AID 624171 | actives 0.31% (n = 410,000); note: nearly all actives have a fitted effect of over 65% in size
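ARE-driven firefly luciferase activity in AREc32 cells measured after a 24 hr compound exposure at 37 deg C, using Steady-Glo reagent and a 30 min room-temperature hold.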
Mito fusion act: mitochondrial division inhibition or fusion activation. S. cerevisiae fusion-defective mutant growth rescue, CellTiterGlo 48 h. Potency, µM (series often up to 46.1 µM), actives largely listed as activators. actives 0.23% (n = 320,000). AID 485298; note: nearly all actives have a fitted effect of over 45% in size
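Temperature-sensitive fusion-defective S. cerevisiae (e.g. fzo1-1, mgm1-5) were grown with compound in YPEG medium (3% ethanol, 3% glycerol) for 48 hours at 37C. Growth rescue was measured as viability by CellTiterGlo luminescence after 10 minutes at ambient.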
Nrf2 inh: blocks Nrf2 signaling; Potency, µM (top dose mostly 46 µM), most hits filed as inhibitors; actives 2.1% (n = 360,000); AID 504444; A549 ARE-Fluc reporter, luciferase luminescence, 18-24 h; note: nearly all actives have a fitted effect of over 60% in size
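Cells were seeded and rested 2 h, then exposed to compounds for 18-24 h. CellTiter-Fluor was read first as a viability measure. BugLite was added 15 min before the final luminescent read of ARE-luciferase activity in A549 cells.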
A549 tox: A549 cytotoxicity, counter-screen for Nrf2 inhibitors | A549 ARE-Fluc cells, CellTiter-Fluor viability, 18-24 h | Potency, µM (titrated, usually from 46 µM), usual class: inhibitors | actives 0.16% (n = 390,000) | AID 504648
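A549 ARE_Fluc cells in 5% FBS OPTI-MEM were exposed to compounds in concentration-response for 18-24 h at 37 deg C. Viability was read by CellTiter-Fluor fluorescence (Ex 405/Em 525) after 30 min, before the luciferase read.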
miR-21 reporter: raises the signal of a miR-21 reporter; Potency, µM (doses to about 38.3 µM); HeLa miR-21 FLuc reporter, luciferase, 48 h; AID 2288; 340,000 tested, under 10 active; active = well fitted rising curve with a large enough effect; inconclusive = small, poorly fitted or top-dose-only effect; inactive = no such curve, though single readings can be large or run the other way;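 further: miR-21 action dims this reporter so a rising signal means less miR-21 action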
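Compounds were titrated across several concentrations (up to approximately 40 uM) and incubated 48 hours with HeLa miR-21-FLuc reporter cells (miR-21 target sequence downstream of FLuc, endogenous miR-21). Readout was firefly luciferase luminescence after lytic detection reagent.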
Hits are given with their value; i = inactive; ? = inconclusive; nt = no result. The list is not random: actives were taken first. Their share in the collection is about 2.3%. Unless noted, calls come from the whole dose curve; as a rule, active = well fitted curve in the direction sought with a large enough effect; inconclusive = small, poorly fitted or top-dose-only effect, or another doubt; inactive = no such curve, though single readings can be large; an effect the other way counts as inactive or inconclusive.

SMILES	Nrf2 activator	Mito fusion act	Nrf2 inh	A549 tox	miR-21 reporter
Cc1ccc(S(=O)(=O)CCC(=O)N(CCCN2CCOCC2)c2nc3ccccc3s2)cc1	12.6µM	i	?	i	nt
O=C(CCS(=O)(=O)c1ccccc1)N(CCCN1CCOCC1)c1nc2ccccc2s1	?	i	i	i	nt
COc1ccc(-c2cnc(C)o2)cc1S(=O)(=O)Nc1ccc(NC(C)=O)cc1	i	nt	nt	i	i
COc1ccc(C=NNC(=S)Nc2ccc(F)cc2)cc1OC	i	nt	?	i	nt
COc1ccc(C=NNC(=S)NN=Cc2ccc(OC)c(OC)c2)cc1OC	i	nt	14.6µM	i	nt
O=C(NCCc1ccc(Cl)cc1)c1ccc(CS(=O)Cc2cccc(Cl)c2)o1 (stereo not drawn)	i	nt	?	?	?
Cc1ccc(NC(=O)Cn2c(=O)n(CCCS(=O)(=O)C3CCCCC3)c(=O)c3ccccc32)cc1F	i	nt	i	i	i
CCc1cc(C=C(Cl)Cl)oc(=O)c1C	14.1µM	i	i	i	i
Cc1cccc2sc(N(CCN(C)C)C(=O)/C=C/c3cccs3)nc12	11.2µM	i	i	?	i
CCN(CC)CCN(C(=O)/C=C/c1cccs1)c1nc2ccc(OC)cc2s1	i	nt	?	i	nt
COc1ccc2nc(N(CCN(C)C)C(=O)/C=C/c3cccs3)sc2c1	10µM	i	i	i	?
COc1ccc2sc(N(CCN(C)C)C(=O)/C=C/c3cccs3)nc2c1	10µM	i	i	i	i
COc1ccc(-c2ccnc3c2c(=O)n(C)c(=O)n3C)cc1OC	i	nt	i	i	i
O=C(/C=C\c1ccco1)NC(=S)Nc1ccccc1O	7.08µM	i	i	i	i
COc1ccc2cc(C(C)C(=O)Nc3cccc(S(=O)(=O)N(C)C)c3)ccc2c1 (stereo not drawn)	i	i	16.4µM	i	i
CSc1cccc(NC(=O)C(C)C)c1	i	i	i	i	i
CC(C)C(=O)Nc1cccc(S(=O)(=O)c2cccc(NC(=O)C(C)C)c2)c1	i	i	20.6µM	i	i
O=C(Nc1ccc(F)cc1)c1ccc(-n2cncn2)c([N+](=O)[O-])c1	i	i	23.1µM	i	i
CC(=O)N1CCN(c2ccc(NCc3ccc(C)cc3)cc2)CC1	i	i	i	i	i
CCc1ccc(CNc2ccc(N3CCN(C(C)=O)CC3)cc2)cc1	i	i	16.4µM	?	i
Cc1ccc(Oc2ncccc2NC(=O)CC2(CC(=O)O)CCCC2)c2c1CCC2	i	i	i	i	i
CCOC(=O)C(=CNc1cccnc1Oc1ccc(C)c2c1CCC2)C(=O)OCC	i	i	18.4µM	i	i
Cc1nc2cccnc2n1C1CCN(S(=O)(=O)N(C)C)CC1	i	nt	?	i	i
O=c1cc(O)cc(/C=C/c2ccc(O)c(O)c2)o1	nt	16.4µM	nt	nt	nt
COc1ccc(NC(=O)Cn2nc(C)c3nn(-c4ccc(Cl)cc4)c(C)c3c2=O)cc1	i	nt	nt	i	i
SMILES	Nrf2 activator	Mito fusion act	Nrf2 inh	A549 tox	miR-21 reporter
O=C(NC(Cc1c[nH]c2ccccc12)C(=O)Nc1ccc(F)c([N+](=O)[O-])c1)c1cccs1 (stereo not drawn)	i	i	?	i	i
O=C(NC(Cc1c[nH]c2ccccc12)C(=O)Nc1ccc(OC(F)(F)F)cc1)c1cccs1 (stereo not drawn)	i	i	?	23.1µM	i
O=C1c2ccccc2NC(c2ccccc2O)N1Cc1ccco1 (stereo not drawn)	nt	nt	i	i	nt
COc1cccc(CN(C)C(=O)c2[nH]c(C)c(C(C)=O)c2C)c1OC	i	i	23.1µM	i	i
COc1ccccc1CNC(=O)c1[nH]c(C)c(C(C)=O)c1C	i	i	i	i	i
O=C(CCNS(=O)(=O)c1ccc2c(c1)CCN2C(=O)C1CC1)N1CCN(c2cccc(Cl)c2)CC1	i	nt	nt	i	?
CC1CCCCN1c1ncnc2ccccc12 (stereo not drawn)	i	i	?	i	i
CC1(C)CC2CC(C)(CN2c2ncnc3ccccc23)C1 (stereo not drawn)	i	i	10.3µM	?	i
CCCCc1ccc(NC(=O)c2cc3c(=O)n4ccccc4nc3n2C)cc1	i	nt	i	i	i
CCN(CC)c1nc(SCCOC(=O)Nc2ccccc2)nc(N(CC)CC)n1	i	i	20.6µM	?	i
CN(C)c1nc(SCCOC(=O)c2ccccc2)nc(N(C)C)n1	i	i	i	i	i
O=[N+]([O-])c1cccc(-c2cc(C(F)(F)F)n3nc(-c4ccccc4)cc3n2)c1	i	i	i	i	i
O=[N+]([O-])c1ccc(O)c(-c2ccnc3cc(-c4ccccc4)nn23)c1	i	nt	18.4µM	16.4µM	i
S=C(NC1CC2CCC1C2)N1CCN(c2cccc(Cl)c2)CC1 (stereo not drawn)	i	i	16.4µM	i	i
S=C(NCc1ccccc1)N1CCN(c2cccc(Cl)c2)CC1	i	i	?	i	i
COc1ccc(C2CC(=O)Oc3c(C(CCN4CCCC(C)C4)c4cc(OC)c(OC)c(OC)c4)c(OC)cc(OC)c32)cc1 (stereo not drawn)	nt	nt	i	i	nt
C=CCOc1ccc(/C=C/C(=O)OCC(=O)N2CCC(c3ccccc3)=N2)cc1	i	i	20.6µM	i	nt
COc1ccc(S(=O)(=O)N2CCN(Cc3nc4ccc(C)cc4o3)CC2)cc1	i	nt	nt	i	i
CCC(C)S(=O)(=O)c1oc(-c2ccc(F)cc2)nc1S(=O)(=O)c1ccc(F)cc1 (stereo not drawn)	i	nt	?	?	?
CC(=O)Nc1nc(-c2ccccc2)nc(-c2ccccc2OC(C)=O)n1	i	i	13µM	i	i
